The values below come from patent publication US7413873.

Assay [1] deals with full length TCF1. Put plainly: cell-based or functional assay.
For assay [2], the target named is full length TCF4. In words: cell-based or functional assay.

As to β-catenin (wild type), the fold activation of LEF1 promoter luciferase reporter over 5 replicate experiments in assay [1] amounted to 8 fold. In assay [2], this substance showed an activation of luciferase reporter gene driven by the LEF1 promoter (-672, +305), co-transfection in 2017 T lymphocytes of 4.6 fold and a fold activation of LEF1 promoter luciferase reporter over 5 replicate experiments of 5.6 fold.
